# Biological target: T1, AhR receptor (Homo sapiens, UniProt P35869)
# T1 construct: cells of reporter gene expressing natural (Human Hepatoma Huh-7) AhR receptor; endogenous in cells; host or cells: Human hepatoma Huh-7 reporter cells (firefly luciferase under a receptor-specific response element)
# T1 sequence (P35869 11-848): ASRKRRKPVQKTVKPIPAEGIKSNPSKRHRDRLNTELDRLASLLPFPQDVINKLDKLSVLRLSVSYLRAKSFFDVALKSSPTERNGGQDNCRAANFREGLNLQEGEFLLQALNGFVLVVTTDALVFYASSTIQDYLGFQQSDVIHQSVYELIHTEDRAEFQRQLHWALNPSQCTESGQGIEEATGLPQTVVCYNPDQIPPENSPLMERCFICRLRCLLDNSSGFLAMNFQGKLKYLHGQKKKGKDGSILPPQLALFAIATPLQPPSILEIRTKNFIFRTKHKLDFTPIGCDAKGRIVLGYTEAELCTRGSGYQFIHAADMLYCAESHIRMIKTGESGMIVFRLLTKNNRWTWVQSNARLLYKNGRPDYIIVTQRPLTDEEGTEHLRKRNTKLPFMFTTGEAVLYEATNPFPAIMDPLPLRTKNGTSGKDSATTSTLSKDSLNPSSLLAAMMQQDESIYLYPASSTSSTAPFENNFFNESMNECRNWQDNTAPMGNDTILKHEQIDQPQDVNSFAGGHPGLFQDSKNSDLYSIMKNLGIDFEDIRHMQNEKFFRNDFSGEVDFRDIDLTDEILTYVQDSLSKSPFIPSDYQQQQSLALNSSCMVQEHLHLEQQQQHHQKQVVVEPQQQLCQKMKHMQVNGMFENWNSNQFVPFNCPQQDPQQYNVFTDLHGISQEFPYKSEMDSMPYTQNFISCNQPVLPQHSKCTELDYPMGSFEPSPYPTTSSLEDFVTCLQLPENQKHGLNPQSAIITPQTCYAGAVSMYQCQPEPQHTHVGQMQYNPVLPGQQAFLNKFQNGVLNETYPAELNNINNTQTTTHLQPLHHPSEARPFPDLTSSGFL
# Assay: AhR agonist assay (luciferase reporter gene cells)
# Assay type: cell-based
# Conditions: reporter cells expressing natural (Human Hepatoma Huh-7) AhR receptor, firefly luciferase, 24 hours at 37° C., 0.1% DMSO
# Protocol: Experimental material (plasmids): cells of reporter gene expressing natural (Human Hepatoma Huh-7) AhR receptor, in which reporter vector comprises a functional firefly luciferase gene connecting to an upstream receptor specific genetic response element (GRE).
# AhR agonist test includes following three steps:
# 1, Implanting into cells: a suspension of reporter cell of AhR receptor was prepared in cell recovery medium (CRM; containing 10% charcoal-treated FBS). Then the suspension (100 μL) was assigned to wells in a white culture plate with 96 wells.
# 2, Before the experiment was about to begin, Master Stocks was diluted to be a processing medium of “concentration of 2 X” by use of appropriate compound screening assay medium (CSM: containing 10% charcoal-treated FBS). […]
# 3, Fluorescence detection and analysis: after incubation, the processing medium was discarded and luciferase detection reagent was added 100 μL/well. Ave RLU (mean relative fluorescence intensity) of each well and coefficient of variation for each set of experiments were detected. Ratio of Ave RLU^Test Cmpd of treatment groups with test compound of different concentrations to Ave RLU^Vehicle of blank control group can determine activity quantitatively of AhR receptor under influence of test compound of different concentrations and activating multiples as well as EC50. […]
compound,measurement,value
COC(=O)c1cnc(C(=O)c2c[nH]c3ccccc23)s1 [Compound 11],EC50,10 to 100 µM

# — patent US11547698B2, “Aryl hydrocarbon receptor modulators” (ARIAGEN, INC., priority 2016, dated 2023)
